Literature values in US8946301B2, “Targeting of T-lymphocytes to treat amyotrophic lateral sclerosis” (ALS Therapy Development Institute, priority 2011, dated 2015).

Amino acid sequences for entries named in this document (tags omitted).
UniProt P21453, whole entry: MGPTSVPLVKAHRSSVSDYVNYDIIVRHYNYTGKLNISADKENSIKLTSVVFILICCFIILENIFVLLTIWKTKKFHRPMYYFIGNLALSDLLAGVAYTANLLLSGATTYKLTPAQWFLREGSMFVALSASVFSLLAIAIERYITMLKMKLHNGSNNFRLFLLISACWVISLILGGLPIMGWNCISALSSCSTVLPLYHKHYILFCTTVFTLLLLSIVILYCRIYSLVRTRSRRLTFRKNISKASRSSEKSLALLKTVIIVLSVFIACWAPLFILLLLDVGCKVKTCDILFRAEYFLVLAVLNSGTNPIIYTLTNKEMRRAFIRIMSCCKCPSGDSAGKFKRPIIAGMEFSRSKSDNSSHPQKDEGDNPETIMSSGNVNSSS

Target: T1, sphingosine-1-phosphate-1 receptor (Homo sapiens, UniProt P21453)
T1 construct: host or cells: thymocytes and lymphocytes
Conditions: on thymocytes and lymphocytes, after phosphorylation; Kappos et al. 2006; cited from earlier work

CCCCCCCCc1ccc(CC[C@](N)(CO)COP(=O)(O)O)cc1 [fingolimod-P]
action at sphingosine-1-phosphate-1 receptor: superagonist
